The chains behind the UniProt entries cited, without tags or fusion partners.
UniProt P33533, whole entry: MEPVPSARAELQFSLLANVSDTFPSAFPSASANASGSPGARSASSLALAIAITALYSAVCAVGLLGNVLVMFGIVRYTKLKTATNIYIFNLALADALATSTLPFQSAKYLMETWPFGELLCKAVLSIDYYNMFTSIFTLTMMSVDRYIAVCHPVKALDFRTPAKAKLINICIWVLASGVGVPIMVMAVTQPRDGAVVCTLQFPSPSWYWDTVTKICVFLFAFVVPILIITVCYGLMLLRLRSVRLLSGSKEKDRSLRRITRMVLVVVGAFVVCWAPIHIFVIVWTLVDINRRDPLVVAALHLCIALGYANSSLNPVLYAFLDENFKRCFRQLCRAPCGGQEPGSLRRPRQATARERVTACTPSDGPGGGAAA

According to ChEMBL document CHEMBL1124249 (J Med Chem, 1988):

Biological target: Delta-type opioid receptor (Rattus norvegicus, UniProt P33533)
Assay: Inhibition of [3H]DTLET binding torat brain membrane Opioid receptor delta 1

## CSCC[C@H](NC(=O)[C@H](Cc1ccccc1)NC(=O)CNC(=O)CNC(=O)[C@@H](N)Cc1ccc(O)cc1)C(=O)O
  Ki: 7.3 nM
